For test [1], the target named is human Adrenergic, Beta 3 Receptor (Adrb3), ADRB3 (gene 155) (UniProt P13945). The test is described as follows: NVS_GPCR_hAdrb3: NovaScreen (NVS) G Protein-Coupled Receptor Assay for human Adrenergic, Beta 3 Receptor (Adrb3) (AID 2283262). An outline of the steps: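 Membranes from SK-N-MC cells pretreated with isoproterenol and 8-bromo-cAMP were used in a radioligand competitive displacement binding assay. Binding was read by filter-based scintillation counting 1 hour after dosing. Primary screening was in duplicate at 25 uM, with concentration series in follow-up.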

Sequences of proteins named here, by UniProt entry; tags and fusion partners are left off.
UniProt P21731, whole entry: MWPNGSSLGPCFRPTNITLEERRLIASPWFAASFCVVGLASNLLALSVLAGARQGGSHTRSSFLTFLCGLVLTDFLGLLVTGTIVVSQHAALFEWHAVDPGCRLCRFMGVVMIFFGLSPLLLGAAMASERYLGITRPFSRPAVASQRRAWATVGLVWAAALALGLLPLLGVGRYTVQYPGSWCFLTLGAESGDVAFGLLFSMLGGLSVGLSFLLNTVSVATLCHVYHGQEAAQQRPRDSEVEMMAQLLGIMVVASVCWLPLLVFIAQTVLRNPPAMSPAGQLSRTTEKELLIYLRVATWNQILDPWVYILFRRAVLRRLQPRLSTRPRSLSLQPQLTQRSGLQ
UniProt P08219, whole entry: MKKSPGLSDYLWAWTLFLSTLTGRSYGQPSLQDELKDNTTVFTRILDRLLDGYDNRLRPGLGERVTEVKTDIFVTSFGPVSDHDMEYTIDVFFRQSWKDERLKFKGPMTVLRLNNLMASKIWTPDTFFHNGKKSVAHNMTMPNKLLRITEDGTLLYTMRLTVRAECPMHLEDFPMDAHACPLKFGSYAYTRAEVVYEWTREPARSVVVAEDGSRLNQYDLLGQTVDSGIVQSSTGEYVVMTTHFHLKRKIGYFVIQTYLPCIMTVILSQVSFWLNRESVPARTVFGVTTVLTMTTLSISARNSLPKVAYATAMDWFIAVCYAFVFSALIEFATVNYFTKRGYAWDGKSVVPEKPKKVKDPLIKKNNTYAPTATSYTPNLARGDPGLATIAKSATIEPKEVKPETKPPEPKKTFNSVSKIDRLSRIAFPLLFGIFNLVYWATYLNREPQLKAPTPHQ
UniProt P29476, whole entry: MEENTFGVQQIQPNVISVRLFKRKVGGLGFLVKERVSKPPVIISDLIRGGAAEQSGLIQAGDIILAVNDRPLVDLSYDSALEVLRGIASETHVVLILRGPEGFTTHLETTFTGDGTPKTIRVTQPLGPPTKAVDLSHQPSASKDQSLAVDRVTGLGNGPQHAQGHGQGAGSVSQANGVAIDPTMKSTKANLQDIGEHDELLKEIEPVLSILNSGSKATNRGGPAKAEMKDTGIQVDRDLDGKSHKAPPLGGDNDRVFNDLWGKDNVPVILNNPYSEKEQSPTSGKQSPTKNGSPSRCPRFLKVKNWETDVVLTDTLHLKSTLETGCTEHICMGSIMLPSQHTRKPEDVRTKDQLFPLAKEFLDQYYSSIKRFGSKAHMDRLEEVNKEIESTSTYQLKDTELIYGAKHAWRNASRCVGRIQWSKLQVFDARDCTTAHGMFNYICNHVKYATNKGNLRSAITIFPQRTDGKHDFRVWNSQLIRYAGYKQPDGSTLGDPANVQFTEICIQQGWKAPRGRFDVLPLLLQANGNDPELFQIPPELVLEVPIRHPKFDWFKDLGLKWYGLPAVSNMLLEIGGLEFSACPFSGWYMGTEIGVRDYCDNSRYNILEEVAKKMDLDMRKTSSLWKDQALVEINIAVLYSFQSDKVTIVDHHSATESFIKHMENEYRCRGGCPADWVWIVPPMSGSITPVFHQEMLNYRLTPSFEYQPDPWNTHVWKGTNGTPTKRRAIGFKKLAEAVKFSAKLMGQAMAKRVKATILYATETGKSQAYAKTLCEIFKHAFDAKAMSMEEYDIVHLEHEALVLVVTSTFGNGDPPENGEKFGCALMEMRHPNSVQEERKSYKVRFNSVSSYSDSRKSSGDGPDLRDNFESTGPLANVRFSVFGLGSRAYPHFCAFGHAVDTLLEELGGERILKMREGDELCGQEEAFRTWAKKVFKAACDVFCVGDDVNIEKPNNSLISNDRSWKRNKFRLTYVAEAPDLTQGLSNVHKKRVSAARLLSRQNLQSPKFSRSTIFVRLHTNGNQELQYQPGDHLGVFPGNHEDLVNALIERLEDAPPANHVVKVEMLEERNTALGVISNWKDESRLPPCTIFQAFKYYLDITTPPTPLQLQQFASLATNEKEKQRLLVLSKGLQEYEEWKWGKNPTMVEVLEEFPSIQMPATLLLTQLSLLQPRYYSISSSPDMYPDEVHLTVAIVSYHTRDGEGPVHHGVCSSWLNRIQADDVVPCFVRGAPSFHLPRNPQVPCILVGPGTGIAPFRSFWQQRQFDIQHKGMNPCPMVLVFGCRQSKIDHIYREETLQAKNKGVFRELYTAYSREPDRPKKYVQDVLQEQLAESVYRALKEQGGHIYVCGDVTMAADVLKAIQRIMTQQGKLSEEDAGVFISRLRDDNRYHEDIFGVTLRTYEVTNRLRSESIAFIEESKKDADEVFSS
UniProt P19643, whole entry: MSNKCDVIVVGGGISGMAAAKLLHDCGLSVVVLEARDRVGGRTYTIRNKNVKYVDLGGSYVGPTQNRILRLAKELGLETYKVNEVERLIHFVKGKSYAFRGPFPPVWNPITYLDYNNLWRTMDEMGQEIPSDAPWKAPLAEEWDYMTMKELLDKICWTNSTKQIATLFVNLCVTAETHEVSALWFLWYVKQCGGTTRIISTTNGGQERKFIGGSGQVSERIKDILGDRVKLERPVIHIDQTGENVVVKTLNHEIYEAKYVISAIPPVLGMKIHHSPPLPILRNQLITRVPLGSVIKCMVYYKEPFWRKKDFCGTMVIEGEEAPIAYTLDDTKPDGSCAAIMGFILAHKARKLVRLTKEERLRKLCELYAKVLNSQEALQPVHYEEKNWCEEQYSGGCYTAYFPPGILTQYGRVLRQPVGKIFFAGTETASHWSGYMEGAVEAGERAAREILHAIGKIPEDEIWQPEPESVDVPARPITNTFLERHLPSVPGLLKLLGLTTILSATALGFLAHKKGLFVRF
UniProt P05979, whole entry: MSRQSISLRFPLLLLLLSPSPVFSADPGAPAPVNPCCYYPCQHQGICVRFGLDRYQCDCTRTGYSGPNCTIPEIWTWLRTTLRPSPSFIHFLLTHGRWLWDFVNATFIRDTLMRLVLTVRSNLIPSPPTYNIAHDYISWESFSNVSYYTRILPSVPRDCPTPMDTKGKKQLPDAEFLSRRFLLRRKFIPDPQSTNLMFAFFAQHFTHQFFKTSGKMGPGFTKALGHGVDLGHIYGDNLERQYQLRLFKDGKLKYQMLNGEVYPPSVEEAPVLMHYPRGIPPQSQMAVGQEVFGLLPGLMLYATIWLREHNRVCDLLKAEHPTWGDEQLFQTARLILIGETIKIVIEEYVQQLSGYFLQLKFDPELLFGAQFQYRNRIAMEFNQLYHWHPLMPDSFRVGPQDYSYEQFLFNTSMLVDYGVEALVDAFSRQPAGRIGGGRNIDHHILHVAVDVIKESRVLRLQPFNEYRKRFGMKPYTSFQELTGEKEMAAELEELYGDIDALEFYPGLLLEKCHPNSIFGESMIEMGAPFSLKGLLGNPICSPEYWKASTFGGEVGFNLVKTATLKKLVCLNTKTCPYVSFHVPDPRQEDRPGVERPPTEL
UniProt P22909, whole entry: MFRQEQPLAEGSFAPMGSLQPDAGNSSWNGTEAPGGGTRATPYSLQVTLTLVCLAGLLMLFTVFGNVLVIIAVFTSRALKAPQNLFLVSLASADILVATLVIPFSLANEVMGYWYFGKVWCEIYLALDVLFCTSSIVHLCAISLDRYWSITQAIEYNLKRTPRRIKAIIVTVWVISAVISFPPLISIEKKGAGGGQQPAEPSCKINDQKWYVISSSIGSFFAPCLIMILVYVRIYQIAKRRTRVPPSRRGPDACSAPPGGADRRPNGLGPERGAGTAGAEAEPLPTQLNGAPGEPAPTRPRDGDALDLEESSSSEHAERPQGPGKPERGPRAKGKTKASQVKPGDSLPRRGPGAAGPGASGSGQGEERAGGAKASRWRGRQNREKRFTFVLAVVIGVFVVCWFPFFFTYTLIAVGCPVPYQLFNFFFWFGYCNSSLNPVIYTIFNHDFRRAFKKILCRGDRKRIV
UniProt Q02763, whole entry: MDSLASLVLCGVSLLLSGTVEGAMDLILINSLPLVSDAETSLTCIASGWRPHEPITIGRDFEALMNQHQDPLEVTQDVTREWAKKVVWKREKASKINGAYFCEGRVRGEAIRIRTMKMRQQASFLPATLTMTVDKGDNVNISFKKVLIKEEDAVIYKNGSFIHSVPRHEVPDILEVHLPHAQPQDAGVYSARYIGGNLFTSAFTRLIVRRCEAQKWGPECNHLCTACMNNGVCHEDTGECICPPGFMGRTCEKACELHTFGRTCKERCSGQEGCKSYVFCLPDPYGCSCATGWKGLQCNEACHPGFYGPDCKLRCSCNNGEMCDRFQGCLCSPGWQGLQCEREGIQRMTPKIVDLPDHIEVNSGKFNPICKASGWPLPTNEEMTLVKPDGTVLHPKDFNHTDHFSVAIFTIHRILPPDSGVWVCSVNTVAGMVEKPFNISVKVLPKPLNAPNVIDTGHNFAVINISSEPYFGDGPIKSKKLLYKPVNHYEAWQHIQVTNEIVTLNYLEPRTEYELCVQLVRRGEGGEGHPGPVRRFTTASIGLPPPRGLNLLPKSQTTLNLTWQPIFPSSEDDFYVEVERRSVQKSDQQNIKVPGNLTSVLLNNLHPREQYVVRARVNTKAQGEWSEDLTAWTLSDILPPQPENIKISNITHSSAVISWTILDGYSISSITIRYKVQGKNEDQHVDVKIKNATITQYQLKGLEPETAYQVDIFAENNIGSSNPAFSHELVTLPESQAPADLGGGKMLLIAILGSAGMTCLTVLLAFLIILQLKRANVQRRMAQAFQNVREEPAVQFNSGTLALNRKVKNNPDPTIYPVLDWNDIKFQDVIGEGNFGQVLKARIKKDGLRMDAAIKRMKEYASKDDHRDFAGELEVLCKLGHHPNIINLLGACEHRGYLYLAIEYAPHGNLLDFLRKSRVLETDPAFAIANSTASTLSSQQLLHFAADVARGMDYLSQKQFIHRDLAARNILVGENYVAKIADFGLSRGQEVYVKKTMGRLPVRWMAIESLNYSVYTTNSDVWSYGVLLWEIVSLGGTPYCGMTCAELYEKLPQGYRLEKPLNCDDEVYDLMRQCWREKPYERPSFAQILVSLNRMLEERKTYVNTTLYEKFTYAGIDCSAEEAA
UniProt P16257, whole entry: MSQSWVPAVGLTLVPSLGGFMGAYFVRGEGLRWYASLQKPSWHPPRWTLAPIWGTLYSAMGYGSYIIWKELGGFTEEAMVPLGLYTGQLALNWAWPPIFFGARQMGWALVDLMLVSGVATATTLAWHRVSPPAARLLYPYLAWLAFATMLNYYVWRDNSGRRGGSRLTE
UniProt P35353, whole entry: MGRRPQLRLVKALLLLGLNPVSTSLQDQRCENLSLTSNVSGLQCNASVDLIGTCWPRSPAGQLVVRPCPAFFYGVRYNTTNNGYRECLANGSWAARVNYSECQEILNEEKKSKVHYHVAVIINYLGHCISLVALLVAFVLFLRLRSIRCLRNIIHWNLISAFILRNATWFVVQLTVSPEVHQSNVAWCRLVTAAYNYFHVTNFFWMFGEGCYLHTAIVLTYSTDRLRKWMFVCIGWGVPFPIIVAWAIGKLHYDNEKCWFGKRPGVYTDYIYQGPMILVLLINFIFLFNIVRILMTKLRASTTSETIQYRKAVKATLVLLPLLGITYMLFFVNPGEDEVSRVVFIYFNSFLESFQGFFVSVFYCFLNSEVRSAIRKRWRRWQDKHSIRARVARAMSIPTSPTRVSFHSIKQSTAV
UniProt Q05941, whole entry: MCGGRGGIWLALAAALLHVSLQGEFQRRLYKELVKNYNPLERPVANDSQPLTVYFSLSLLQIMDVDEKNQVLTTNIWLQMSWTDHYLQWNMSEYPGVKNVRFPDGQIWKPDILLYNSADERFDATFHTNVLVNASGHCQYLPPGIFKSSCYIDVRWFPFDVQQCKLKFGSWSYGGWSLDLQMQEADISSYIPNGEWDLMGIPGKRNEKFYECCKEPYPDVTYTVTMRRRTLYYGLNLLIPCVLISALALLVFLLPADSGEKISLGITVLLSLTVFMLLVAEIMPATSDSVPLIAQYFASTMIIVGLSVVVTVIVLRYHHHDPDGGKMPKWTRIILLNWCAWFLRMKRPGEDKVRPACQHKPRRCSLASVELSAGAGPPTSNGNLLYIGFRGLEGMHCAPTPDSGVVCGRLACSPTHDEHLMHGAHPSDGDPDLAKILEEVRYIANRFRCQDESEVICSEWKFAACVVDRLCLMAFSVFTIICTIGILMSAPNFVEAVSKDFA
UniProt P12931, whole entry: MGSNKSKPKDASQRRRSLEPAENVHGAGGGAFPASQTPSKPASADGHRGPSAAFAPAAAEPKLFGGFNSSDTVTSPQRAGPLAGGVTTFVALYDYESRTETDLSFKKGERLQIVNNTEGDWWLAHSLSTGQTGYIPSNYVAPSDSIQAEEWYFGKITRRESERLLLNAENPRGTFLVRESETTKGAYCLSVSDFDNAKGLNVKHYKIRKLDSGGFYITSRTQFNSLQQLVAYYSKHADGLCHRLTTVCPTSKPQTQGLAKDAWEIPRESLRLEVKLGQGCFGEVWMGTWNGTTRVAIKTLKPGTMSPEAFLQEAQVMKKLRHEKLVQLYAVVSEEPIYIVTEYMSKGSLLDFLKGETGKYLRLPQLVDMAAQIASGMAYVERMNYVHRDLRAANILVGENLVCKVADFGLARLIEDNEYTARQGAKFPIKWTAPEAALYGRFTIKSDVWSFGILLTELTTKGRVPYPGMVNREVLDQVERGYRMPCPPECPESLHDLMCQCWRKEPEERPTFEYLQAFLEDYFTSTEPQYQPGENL

Test [2] has as its target human Thromboxane A2 Receptor (TXA2), TBXA2R (gene 6915) (UniProt P21731). Nature of the test: NVS_GPCR_hTXA2: NovaScreen (NVS) G Protein-Coupled Receptor Assay for human Thromboxane A2 Receptor (TXA2) (AID 2283282).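 Note: actives reduce bound radioligand signal relative to DMSO baseline.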 Put shortly:
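Filter scintillation counting of bound radioligand, human platelet protein, 1 h exposure. Single-concentration duplicates (25 uM) first, concentration-response follow-up for actives. Binding loss scored against DMSO baseline.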

Test [3] concerns the target bovine Gamma-Aminobutyric Acid Type A Receptor Agonist (GABAR Agonist), GABRA1 (gene 780973) (UniProt P08219). The test is described as follows: NVS_LGIC_bGABAR_Agonist: NovaScreen (NVS) Ligand-Gated Ion Channel Assay for bovine Gamma-Aminobutyric Acid Type A Receptor Agonist (GABAR Agonist) (AID 2283338). Put shortly:
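Radioligand binding to bovine cerebellar membranes in agonist format, read by filter-based scintillation counting after 1 h. Primary screen in duplicate at 25 uM, with actives followed in concentration series. Gain of signal versus DMSO.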

Test [4] has as its target rat Constitutive Nitric Oxide Synthase (CNOS), Nos1 (gene 24598) (UniProt P29476). The test is described as follows: NVS_ENZ_rCNOS: NovaScreen (NVS) Enzymatic Assay for rat Constitutive Nitric Oxide Synthase (CNOS) (AID 2283236). Put shortly:
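Enzyme activity in rat brain membrane preparation, read 1 h after dosing by filter-based radiometric scintillation counting. Primary screen in duplicate at 25 uM; actives (e.g., ≥30% inhibition) then run in concentration-response up to 50 uM.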

In test [5] the test system is rat Monoamine Oxidase, MAO-A, Peripheral (MAOAP), gene 29253. The test is described as follows: NVS_ENZ_rMAOAP: NovaScreen (NVS) Enzymatic Assay for rat Monoamine Oxidase, MAO-A, Peripheral (MAOAP) (AID 2283237). An outline of the steps:
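Rat liver mitochondrial membranes served as the MAO-A source, with enzyme activity measured by radiometric scintillation counting 1.17 hours after dosing. Loss of signal was fitted against DMSO; primary screen used 25 uM in duplicate, follow-up used concentration series.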

The target of test [6] is rat Monoamine Oxidase, MAO-B, Central (MAOBC), Maob (gene 25750) (UniProt P19643). Nature of the test: NVS_ENZ_rMAOBC: NovaScreen (NVS) Enzymatic Assay for rat Monoamine Oxidase, MAO-B, Central (MAOBC) (AID 2283238). Put shortly:
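Compounds were first tested in duplicate at 25 uM against MAO-B from rat brain tissue; those passing the inhibition threshold were retested in concentration series up to 50 uM. Radiodetection by scintillation counting at 1.17 h, analysed against DMSO baseline.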

For test [7], the target named is sheep Cyclooxygenase-1 (Cox1), PTGS1 (gene 443551) (UniProt P05979). Nature of the test: NVS_ENZ_oCOX1: NovaScreen (NVS) Enzymatic Assay for sheep Cyclooxygenase-1 (Cox1) (AID 2283239).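 Note: actives reduce cyclooxygenase activity so potencies are for inhibitors.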 Put shortly: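 Ovine seminal vesicle extract; absorbance (colorimetric) enzyme read-out at 0.66 h post-dose. Primary: single conc 25 uM, duplicate. Follow-up: concentration series on actives. Activity = signal loss vs DMSO baseline.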

For test [8], the target named is rat Monoamine Oxidase, MAO-B, Peripheral (MAOBP), Maob (gene 25750) (UniProt P19643). Nature of the test: NVS_ENZ_rMAOBP: NovaScreen (NVS) Enzymatic Assay for rat Monoamine Oxidase, MAO-B, Peripheral (MAOBP) (AID 2283242).
Test [9] deals with rat Monoamine Oxidase, MAO-A, Central (MAOAC), gene 29253. The test is described as follows: NVS_ENZ_rMAOAC: NovaScreen (NVS) Enzymatic Assay for rat Monoamine Oxidase, MAO-A, Central (MAOAC) (AID 2283243).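 Note: potency refers to inhibition seen as signal drop below DMSO baseline.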 An outline of the steps:
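Rat brain tissue extract served as the cell-free enzyme source; activity was measured by radiometric scintillation counting 1.5 hours after compound addition. Loss of signal relative to DMSO baseline indicated inhibition; primary screen at 25 uM in duplicate.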

Test [10] has as its target rat Adrenergic Receptor, Alpha 2 (Adra2), Non-selective Binding, Adra2a (gene 25083) (UniProt P22909). Nature of the test: NVS_GPCR_rAdra2_NonSelective: NovaScreen (NVS) G Protein-Coupled Receptor Assay for rat Adrenergic Receptor, Alpha 2 (Adra2), Non-selective Binding (AID 2283299). Put shortly:
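Rat cortical membranes, radioligand competitive displacement read by filter-based scintillation counting 1.25 hours after dosing. Primary screen in duplicate at 25 uM; actives followed up in concentration series.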

Test [11] has as its target human Protein Tyrosine Phosphatase Receptor Type C (PTPRC), PTPRC (gene 5788) (UniProt P08575). The test is described as follows: NVS_ENZ_hPTPRC: NovaScreen (NVS) Enzymatic Assay for human Protein Tyrosine Phosphatase Receptor Type C (PTPRC) (AID 2283212). Put shortly:
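Yeast-extracted human PTPRC used in a cell-free colorimetric enzyme activity read-out, 1 h after dosing. Primary screen in duplicate at 25 uM; actives rerun in concentration-response up to 50 uM, DMSO as baseline.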

For test [12], the target named is human Tyrosine Protein Kinase Receptor Tie-2 (Tie2), TEK (gene 7010) (UniProt Q02763). Nature of the test: NVS_ENZ_hTie2: NovaScreen (NVS) Enzymatic Assay for human Tyrosine Protein Kinase Receptor Tie-2 (Tie2) (AID 2283225). An outline of the steps:
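Recombinant human Tie2 kinase activity was read cell-free by fluorescence with electrophoretic mobility shift, 1 hour after dosing. The screen used 25 uM in duplicate, then concentration-response up to 50 uM. Signal loss was scored against DMSO.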

The subject of test [13] is rat Adrenergic, Alpha 1B Receptor (Adra1B), gene 24173. Nature of the test: NVS_GPCR_rAdra1B: NovaScreen (NVS) G Protein-Coupled Receptor Assay for rat Adrenergic, Alpha 1B Receptor (Adra1B) (AID 2283297). Put shortly:
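Rat liver membranes, radioligand displacement with filter-based scintillation detection, 1 h incubation. Primary screen in duplicate at 25 uM; actives retested in concentration series; activity relative to DMSO.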

In test [14] the target is bovine Gamma-Aminobutyric Acid Type A Receptor BDZ, alpha 1 site (GABARa1), GABRA1 (gene 780973) (UniProt P08219). The test is described as follows: NVS_LGIC_bGABARa1: NovaScreen (NVS) Ligand-Gated Ion Channel Assay for bovine Gamma-Aminobutyric Acid Type A Receptor BDZ, alpha 1 site (GABARa1) (AID 2283321). Put shortly:
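Radioligand competition binding on bovine cortical membranes, 0.75 h, filter-based scintillation counting. Primary single concentration 25 uM in duplicate; actives rerun in concentration-response to 50 uM max. Loss of signal fitted versus DMSO.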

In test [15] the target is rat Peripheral-type Benzodiazepine Receptor (PBR), Tspo (gene 24230) (UniProt P16257). The test is described as follows: NVS_MP_rPBR: NovaScreen (NVS) Membrane Protein Assay for rat Peripheral-type Benzodiazepine Receptor (PBR) (AID 2283335). An outline of the steps: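 Radioligand displacement, rat kidney membrane prep, 1 h exposure, filter-based scintillation read; DMSO baseline, loss-of-signal scored. Primary screen at 25 uM in duplicate, actives followed up in concentration series.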

Test [16] deals with rat Corticotropin Releasing Factor Receptor (CRF), Crhr1 (gene 58959) (UniProt P35353). The test is described as follows: NVS_GPCR_rCRF: NovaScreen (NVS) G Protein-Coupled Receptor Assay for rat Corticotropin Releasing Factor Receptor (CRF) (AID 2283300). An outline of the steps:
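Rat cortical membranes used as receptor source in a radioligand competitive displacement binding assay; scintillation read 2 h after dosing. Primary screen run in duplicate at 25 uM; loss of signal versus DMSO baseline indicates binding.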

Test [17] has as its target rat Oxytocin Receptor (OXT), Oxtr (gene 25342) (UniProt P70536). The test is described as follows: NVS_GPCR_rOXT: NovaScreen (NVS) G Protein-Coupled Receptor Assay for rat Oxytocin Receptor (OXT) (AID 2283330). Put shortly: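 Radioligand displacement on rat uterine membranes, 1 h incubation, filter-based scintillation counting. Chemicals were screened in duplicate at 25 uM, and those passing threshold were retested in concentration-response up to 50 uM. Loss of binding was fitted versus DMSO.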

Test [18] concerns the target rat Neonicotinoid receptor (NNR), Chrna7 (gene 25302) (UniProt Q05941). Nature of the test: NVS_LGIC_rNNR_BungSens: NovaScreen (NVS) Ligand-Gated Ion Channel Assay for rat Neonicotinoid receptor (NNR) (AID 2283315). An outline of the steps:
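Radioligand displacement binding on rat cortical membranes, 2.5 h incubation, filtration and scintillation counting. Loss of specific binding fitted relative to DMSO.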

For test [19], the target named is Sodium channel protein type 1 subunit alpha (Rattus norvegicus) (UniProt P04774). Nature of the test: NVS_IC_rNaCh_site2: NovaScreen (NVS) Ion Channel Assay for rat Sodium Channel, Site 2 (NaCh) (AID 2283322).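 Note: hit means loss of radioligand binding signal relative to DMSO so AC50 marks displacement.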 An outline of the steps:
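Membranes: rat forebrain. Format: competitive radioligand displacement, filter separation, scintillation readout, 1 h exposure. Primary screen in duplicate at 25 uM; actives retested in concentration series.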

For test [20], the target named is human SRC Proto-Oncogene, Non-receptor Tyrosine Kinase (SRC), SRC (gene 6714) (UniProt P12931). Nature of the test: NVS_ENZ_hSRC: NovaScreen (NVS) Enzymatic Assay for human SRC Proto-Oncogene, Non-receptor Tyrosine Kinase (SRC) (AID 2283223). Put shortly: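 Cell-free kinase activity assay with fluorescent substrate, product separated by electrophoretic mobility shift, read 1 h after dosing. Duplicate single point at 25 uM, then concentration-response up to 50 uM; loss of signal versus DMSO.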

The list shows a part of the results, in another mix than the full data. Results filed as inconclusive are left out. Calls of active or inactive are those of the source. Rule for the calls: active = hit-call score of the fitted dose curve at least 0.9, where 1 is the maximum; inconclusive = response in the unintended direction; inactive = score below 0.9.

Turning to `CC(C)OP(C)(=O)OC(C)C`, the AC50 (usually the concentration at which the activity in the assay is half-maximal) in test [1] was active: 18.8 µM; in test [2] it was active: 2.52 µM. Also, the call in test [3] was inactive.
On to `O=[N+]([O-])c1cccc([N+](=O)[O-])c1`, for which the AC50 in test [4] was active: 1.97 µM; in [5] it was active: 11.5 µM; in test [6] it was active: 1.24 µM; in [8] it was active: 15.7 µM; in test [9], active: 5.05 µM. Also, the result in test [7] was inactive.
For the molecule `COP(C)(=O)OC`, the outcome in test [7] and in test [10] was inactive.
On to `Cc1cccc([N+](=O)[O-])c1[N+](=O)[O-]`, for which the AC50 is active: 2.84 µM in [11], active: 1.81 µM in [5], active: 9.77 µM in [6] and active: 0.572 µM in [9]. For the same molecule, the molecule was called inactive in [12], in test [13] and in test [14].
On to `Cc1ccc([N+](=O)[O-])c([N+](=O)[O-])c1`, for which the AC50 is active: 8.86 µM in test [9] and active: 16.9 µM in test [15].
For `COc1ccc([N+](=O)[O-])cc1[N+](=O)[O-]`, the outcome in test [7] was inactive. Besides, the AC50 in test [9] is active: 13.8 µM.
For the molecule `Cc1c([N+](=O)[O-])cccc1[N+](=O)[O-]`, the molecule was classed as inactive in [11], in [12], in [16] and in test [17]. Further, the figures for the AC50 in test [5], in [6] and in [9] were active: 29.6 µM, active: 11.6 µM and active: 25 µM, respectively.
`CN(C)CCCl`: the molecule was classed as inactive in [18] and in test [19].
As to `Cc1ccc([N+](=O)[O-])cc1[N+](=O)[O-]`, the molecule was called inactive in [20], in test [12], in [6] and in test [14]. Moreover, the values for the concentration at half-maximal activity (AC50) in [5], in test [8] and in test [9] were active: 5.46 µM, active: 8.86 µM and active: 4.95 µM, respectively.

The values above are taken from PubChem BioAssay (EPA / NIEHS).
